## Yeast mating assay B: variants of the scFv Ab-14

Target: peptide PDVDLGDISGINAS, taken from heptad repeat 2 (HR2) of SARS-CoV-2 spike.

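Phage display of a naive human antibody library on the peptide gave the parent. These sequences belong to a second round, designed from the earlier measurements on random variants of the parent. Group labels follow the data file (Ctrl: baseline library sampled from a position-specific scoring matrix, with some repeated check sequences; GPLM: also part of the Gaussian process libraries; HC: hill climbing; Gen: genetic algorithm; a sequence that several methods proposed may carry one label only). Affinity was read by AlphaSeq, a pooled yeast mating assay with surface-displayed partners. Mating (16 h, 30 °C) was followed by selection of diploids and sequencing of their barcodes. The ratio of observed to expected reads was calibrated, replicate by replicate, on BCL2-family standards whose Kd was known from biolayer interferometry. The assay was run in six technical replicates.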

Each scFv is VH, the linker GGGGSGGGGSGGGGS, VL, as in the parent Ab-14, and differs from it in the CDRs of the heavy chain only.
VH: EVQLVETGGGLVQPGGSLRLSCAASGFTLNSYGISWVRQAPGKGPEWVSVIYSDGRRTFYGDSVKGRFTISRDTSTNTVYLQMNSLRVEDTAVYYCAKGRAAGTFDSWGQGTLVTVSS
VL: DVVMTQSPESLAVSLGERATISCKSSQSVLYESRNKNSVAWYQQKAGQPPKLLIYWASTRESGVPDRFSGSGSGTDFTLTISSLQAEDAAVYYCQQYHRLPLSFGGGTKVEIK

Each variant's VH is given in full.
Affinities are written as log10 Kd with Kd in nM; a lower number is a better binder.
Averages over replicates are reported, and they cover detected replicates only.
Where no diploid with the target was found in that replicate, the entry reads "n.d.": below detection, most likely a poor binder, though not proof of it.

| # | VH | group | replicates, log10 nM | mean log10 Kd (nM) | control signals |
|---|---|---|---|---|---|
| 1 | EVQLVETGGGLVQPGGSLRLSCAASGFTLNSYGISWVRQAPGKGPEWVSVIYSDGIRTFYADSVKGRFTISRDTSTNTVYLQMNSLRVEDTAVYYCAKGRAAGTFDSWGQGTLVTVSS | Ctrl | 0.56 0.44 1.20 0.03 0.00 0.31 | 0.42 | 3/18 (2.30) |
| 2 | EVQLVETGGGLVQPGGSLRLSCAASGFHLNSYGISWVRQAPGKGPEWVSVIYSDGRRTFYGDSVKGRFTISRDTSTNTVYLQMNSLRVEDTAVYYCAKGQAAGTFDSWGQGTLVTVSS | Ctrl+GPLM_Gen | 0.65 1.29 2.08 1.15 2.32 0.90; n.d. 1.50 n.d. 0.88 1.07 1.23 | 1.31 | 2/36 (1.45) |
| 3 | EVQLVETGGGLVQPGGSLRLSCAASGFTLNSYGISWVRQAPGKGPEWVSVIYSDGRRTFYSDAVKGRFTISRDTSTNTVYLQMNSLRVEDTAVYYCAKGWAAGLFISWGQGTLVTVSS | Ctrl | n.d. n.d. n.d. n.d. n.d. n.d. | n.d. | 0/18 |
| 4 | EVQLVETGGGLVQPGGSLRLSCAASGFTLNSYGISWVRQAPGKGPEWVSVIYSDGRRTFYGDSVKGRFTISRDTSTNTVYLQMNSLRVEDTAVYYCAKGKAAGTFNSWGQGTLVTVSS | Ctrl | -0.30 0.89 -0.41 -0.29 -0.92 0.23 | -0.13 | 0/18 |
| 5 | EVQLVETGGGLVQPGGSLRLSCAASGFRLNQYGISWVRQAPGKGPEWVSVIYSDGKRTFYGDSVKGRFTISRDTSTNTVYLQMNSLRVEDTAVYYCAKGWAAGTFDSWGQGTLVTVSS | Ctrl | 0.20 1.32 0.48 0.48 -0.22 1.10 | 0.56 | 0/18 |
| 6 | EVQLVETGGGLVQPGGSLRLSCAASGFHLNSYGISWVRQAPGKGPEWVSVIYSDGRRTFYGDSVKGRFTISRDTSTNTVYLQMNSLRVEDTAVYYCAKGRRAGTFDSWGQGTLVTVSS | Ctrl | n.d. n.d. n.d. n.d. n.d. n.d. | n.d. | 0/18 |
| 7 | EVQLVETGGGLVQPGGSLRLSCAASGFTLNSYGISWVRQAPGKGPEWVSVIYSDGMRTMYGDSVKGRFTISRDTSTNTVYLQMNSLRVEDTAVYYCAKGRAAGTFDSWGQGTLVTVSS | Ctrl | n.d. n.d. n.d. n.d. n.d. n.d. | n.d. | 0/18 |
| 8 | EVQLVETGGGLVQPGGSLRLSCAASGFTLNEYGISWVRQAPGKGPEWVSVIYSDGLRTFYGDSVKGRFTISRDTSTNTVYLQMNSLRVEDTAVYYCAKGRGAGTFDSWGQGTLVTVSS | Ctrl | 2.85 1.66 1.49 1.80 1.91 2.86 | 2.10 | 0/18 |
| 9 | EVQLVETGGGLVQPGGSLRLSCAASGFTLNSYGISWVRQAPGKGPEWVSVIYSDGWRTFYTDSVKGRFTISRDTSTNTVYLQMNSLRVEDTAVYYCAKGRAAGTFDSWGQGTLVTVSS | Ctrl | 1.51 n.d. 1.47 n.d. n.d. n.d. | 1.49 | 0/18 |
| 10 | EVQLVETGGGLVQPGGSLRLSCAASGFQLNDYGISWVRQAPGKGPEWVSVIYSDGRRTFYGDSVKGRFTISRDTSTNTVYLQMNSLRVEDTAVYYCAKGRAAGTFDSWGQGTLVTVSS | Ctrl+GPLM_HC | 0.74 0.49 0.65 0.59 0.50 0.97; 0.65 1.19 -0.16 0.31 0.81 0.85 | 0.63 | 0/36 |
| 11 | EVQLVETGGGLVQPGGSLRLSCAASGFALNSYGISWVRQAPGKGPEWVSVIYSDGRRTFYGDSVKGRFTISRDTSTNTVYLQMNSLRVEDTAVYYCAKCYAAGTFDSWGQGTLVTVSS | Ctrl | n.d. n.d. n.d. n.d. n.d. n.d. | n.d. | 0/18 |
| 12 | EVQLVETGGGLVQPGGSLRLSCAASGFTLNSYGISWVRQAPGKGPEWVSVIYSDGRRTFYADSVKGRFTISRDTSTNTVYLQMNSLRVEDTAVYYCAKGRAAGTFDLWGQGTLVTVSS | Ctrl | n.d. 1.48 1.08 0.56 1.87 0.41 | 1.08 | 0/18 |
| 13 | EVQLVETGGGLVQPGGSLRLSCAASGFTLNSYGISWVRQAPGKGPEWVSVIYSDGRRTQYGDSVKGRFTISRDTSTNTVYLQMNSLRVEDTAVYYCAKGRAAGTFDKWGQGTLVTVSS | Ctrl | n.d. n.d. 2.13 3.07 n.d. n.d. | 2.60 | 0/18 |
| 14 | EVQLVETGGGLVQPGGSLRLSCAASGFTLNSYGISWVRQAPGKGPEWVSVIYSDGRRTFYGDSVKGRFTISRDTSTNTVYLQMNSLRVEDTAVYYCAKGYAKGTFDSWGQGTLVTVSS | Ctrl | n.d. n.d. n.d. n.d. n.d. n.d. | n.d. | 0/18 |
| 15 | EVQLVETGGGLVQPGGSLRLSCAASGFTPNSYGISWVRQAPGKGPEWVSVIYSDGRRTFYGDSVKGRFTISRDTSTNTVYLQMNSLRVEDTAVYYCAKGKHAGTFDSWGQGTLVTVSS | Ctrl | n.d. n.d. n.d. n.d. n.d. n.d. | n.d. | 1/18 (1.31) |
| 16 | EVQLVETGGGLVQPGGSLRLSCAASGFNLNSYGISWVRQAPGKGPEWVSVIYSDGRRTYYGNSVKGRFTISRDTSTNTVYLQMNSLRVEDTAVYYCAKGRAAGTFDSWGQGTLVTVSS | Ctrl | n.d. 1.96 2.38 n.d. 1.71 n.d. | 2.01 | 0/18 |
| 17 | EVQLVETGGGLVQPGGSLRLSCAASRFTLNDYGISWVRQAPGKGPEWVSVIYSDGLRTFYGDSVKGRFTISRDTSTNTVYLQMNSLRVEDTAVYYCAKGRAAGTFDSWGQGTLVTVSS | Ctrl | n.d. n.d. n.d. n.d. n.d. n.d. | n.d. | 0/18 |
| 18 | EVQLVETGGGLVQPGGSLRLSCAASGFELNSYGVSWVRQAPGKGPEWVSVIYSDGRRTFYGDSVKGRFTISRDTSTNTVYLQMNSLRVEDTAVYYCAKGRAALTFDTWGQGTLVTVSS | Ctrl | n.d. n.d. n.d. 1.59 1.69 2.28 | 1.85 | 0/18 |

The first 2 entries again:

| VH | group | replicates, log10 nM | mean log10 Kd (nM) | control signals |
|---|---|---|---|---|
| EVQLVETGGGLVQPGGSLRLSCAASGFTLNSYGISWVRQAPGKGPEWVSVIYSDGIRTFYADSVKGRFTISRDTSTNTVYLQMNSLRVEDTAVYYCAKGRAAGTFDSWGQGTLVTVSS | Ctrl | 0.56 0.44 1.20 0.03 0.00 0.31 | 0.42 | 3/18 (2.30) |
| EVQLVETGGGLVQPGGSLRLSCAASGFHLNSYGISWVRQAPGKGPEWVSVIYSDGRRTFYGDSVKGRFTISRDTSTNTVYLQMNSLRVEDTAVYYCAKGQAAGTFDSWGQGTLVTVSS | Ctrl+GPLM_Gen | 0.65 1.29 2.08 1.15 2.32 0.90; n.d. 1.50 n.d. 0.88 1.07 1.23 | 1.31 | 2/36 (1.45) |

A sequence measured in both rounds can read differently, since the two assays cover different ranges.
Of ten entries with the parent sequence, four were seen in most replicates (averages 0.34 to 2.37), three in one and three in none, so single entries are noisy.
The authors averaged sequences with at least three values out of six and counted those with two or fewer as poor binders.
Three control strains display no target. For all heavy chain designs, 1% of the pairings with them gave a signal, with a median of 2.08 and one signal in twenty below 0.84, so weak values seen in few replicates may be background. Also given: how often the same scFv was detected with the empty control strains, with their mean in brackets.
Some sequences occur more than once in the pool; their replicates are listed entry by entry, parted by semicolons.

Values reported by Li et al. 2023, doi:10.1038/s41467-023-39022-2 (FLAb copy).